# From ChEMBL document CHEMBL1131110, “Deoxyadenosine bisphosphate derivatives as potent antagonists at P2Y1 receptors” (J Med Chem, 1998)
# Sequences of proteins named here, by UniProt entry; tags and fusion partners are left off. A change or cut given only in a name is not applied to a line headed by its entry.
# UniProt P49652: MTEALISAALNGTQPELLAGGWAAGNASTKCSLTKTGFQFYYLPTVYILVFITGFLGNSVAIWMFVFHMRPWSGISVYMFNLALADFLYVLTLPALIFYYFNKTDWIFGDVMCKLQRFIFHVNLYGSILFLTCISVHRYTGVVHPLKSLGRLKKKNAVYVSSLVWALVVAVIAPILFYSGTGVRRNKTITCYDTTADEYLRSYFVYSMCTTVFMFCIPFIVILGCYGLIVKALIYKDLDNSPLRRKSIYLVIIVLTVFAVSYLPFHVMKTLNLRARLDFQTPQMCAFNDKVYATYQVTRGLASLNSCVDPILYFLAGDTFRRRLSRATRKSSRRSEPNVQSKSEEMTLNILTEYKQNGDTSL
# Target: P2Y purinoceptor 1 (Meleagris gallopavo) (UniProt P49652)
# Assay: Agonist activity at P2Y1 receptor measured as capacity to stimulate phospholipase C in turkey erythrocyte membranes; NE=No effect
# Format: functional, cell membranes
# In short: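 Turkey erythrocytes labelled with 2-[3H]myo-inositol in inositol-free DMEM for 18–24 h at 37 °C, 5% CO2. Ghosts made by hypotonic lysis. Labelled ghosts (~175 μg protein) incubated 5 min at 30 °C with 1 μM GTPγS and test nucleotide at pH 7.0 (HEPES, KCl, CaCl2, MgSO4, EGTA). Total [3H]inositol phosphates measured by anion-exchange chromatography. EC50 from four-parameter logistic fit. Efficacy is relative to a maximal 2-MeSATP response in the same experiment.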
smiles,measurement,value
CNc1ncnc2c1ncn2[C@H]1C[C@H](OP(=O)(O)O)[C@@H](COP(=O)(O)O)O1,Max increase,inactive

# Calls of active or inactive are those of the source. The calls are words filed in the database; no cut-off is given here.
